Amino acid sequences for entries named in this document (tags omitted).
UniProt P61169, whole entry: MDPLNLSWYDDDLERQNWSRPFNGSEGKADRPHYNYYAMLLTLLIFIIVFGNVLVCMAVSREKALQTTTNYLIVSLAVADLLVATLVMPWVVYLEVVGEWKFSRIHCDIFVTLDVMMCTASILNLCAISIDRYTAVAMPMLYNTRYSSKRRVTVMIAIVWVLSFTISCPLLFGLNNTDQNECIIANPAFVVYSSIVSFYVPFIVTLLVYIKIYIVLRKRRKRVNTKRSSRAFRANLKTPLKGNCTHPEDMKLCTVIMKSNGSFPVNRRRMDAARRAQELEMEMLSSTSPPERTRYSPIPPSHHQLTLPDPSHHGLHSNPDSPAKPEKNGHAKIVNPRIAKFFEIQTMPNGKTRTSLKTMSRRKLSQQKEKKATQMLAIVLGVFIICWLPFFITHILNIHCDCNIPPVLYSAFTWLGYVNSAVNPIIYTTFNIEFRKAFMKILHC

In ChEMBL document CHEMBL1133094 (J Med Chem, 2000):

Biological target: D(2) dopamine receptor (Rattus norvegicus, UniProt P61169)
Assay: Binding Affinity was determined against Dopamine receptor D2 in rat striatal membranes using [3H]- spiperone radioligand.
Assay type: cell membranes, Striatum, Membrane

## CN1CCc2cccc3c2[C@H]1Cc1ccc(O)c(O)c1-3 [APOMORPHINE]
  Ki: 55 nM
